Measurements as given in patent US10206893B2, “Immunoregulatory agents” (Flexus Biosciences, Inc., priority 2014, dated 2019).

By UniProt entry, the sequences of proteins in these tests, tags left out.
UniProt P14902, whole entry: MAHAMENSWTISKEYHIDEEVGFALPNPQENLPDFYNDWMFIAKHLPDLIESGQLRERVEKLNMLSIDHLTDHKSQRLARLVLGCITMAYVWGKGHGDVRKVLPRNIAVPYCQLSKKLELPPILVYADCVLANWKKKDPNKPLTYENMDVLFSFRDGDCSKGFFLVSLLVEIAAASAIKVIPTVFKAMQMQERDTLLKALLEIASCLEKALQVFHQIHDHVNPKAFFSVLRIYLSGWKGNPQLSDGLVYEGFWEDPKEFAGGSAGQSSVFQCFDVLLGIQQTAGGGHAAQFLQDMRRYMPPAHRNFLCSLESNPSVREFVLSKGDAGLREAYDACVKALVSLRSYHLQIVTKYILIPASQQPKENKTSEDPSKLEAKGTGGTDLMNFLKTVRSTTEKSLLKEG

Target: human IDO1 (Homo sapiens, UniProt P14902)
Test: IDO inhibition assay in HEK293 cells stably expressing human IDO1 (kynurenine, Ehrlich reagent)
Settings: read-out: HEK Human IDO-1 Bio Activity, 20 hours incubation

- IC50: < 50 nM
Structure (SMILES): CCC(NC(=O)c1ccc(Cl)cc1)[C@H]1CC[C@@H](Oc2cc(C(F)(F)F)nc3ccccc23)CC1 (relative stereo)
